# According to patent US20250074946A1, “USE OF SE-DR AFFINITY PEPTIDE IN PREPARING DRUG FOR TREATING RHEUMATIC DISEASE” (HEBEI FITNESS BIOTECHNOLOGY CO., LTD., priority 2021, published 2025):
# Target: HLA-DR1 (Homo sapiens, UniProt P01903+P01911, A100R/D57E/F55L/F60I/F76Y/I96L/L162R/M171V/P40L/Q125E/R42F/V115G/Y59C)
# Assay: Determination of polypeptide affinity (fluorescence polarization competition)
# Type: binding
compound,measurement,value
CC(C)C[C@H](NC(=O)[C@H](C)NC(=O)[C@H](CC(C)C)NC(=O)[C@@H](NC(=O)[C@H](C)NC(=O)[C@H](CCC(N)=O)NC(=O)[C@H](CCCCN)NC(=O)[C@H](C)NC(=O)[C@@H](N)Cc1ccc(O)cc1)[C@@H](C)O)C(=O)N[C@@H](C)C(=O)O [APL7],IC50,4.63 µM
